Data taken from PubChem BioAssay AID504884 (Broad Institute, 2011).
The list shows a part of the results, in another mix than the full data. Some of these compounds have results that are not shown, active ones among them. Active and inactive are the calls of the source. Rule as the data show it: active = activity above about 50% (passing the limit was not always enough); inconclusive = no clear call, values can overlap the other calls.

These compounds were tested on DNA topoisomerase I (Yersinia pestis CO92) (assay: Yersinia pestis topoisomerase I inhibitors, primary screen, biochemical, cleavage product accumulation, plate reader, single point (AID 504884)). Settings: Y. pestis Topo-I cleavage product accumulation, at 10 µM, stronger effect = higher value.
In the case of O=C(NCC1(N2CCCCC2)CCCCC1)c1cccc(Cl)c1, the activity is reported as inactive: 6.76%.
With COc1ccc(Cl)cc1C(=O)NCC1(N(C)C)CCCCC1 the activity was inactive: 3.32%.
COc1cccc(C(=O)NCC2(N3CCCCC3)CCCCC2)c1 was tested, and the activity was inactive: -6.3%.
COc1cc(C(=O)NCC2(N(C)C)CCCCC2)c([N+](=O)[O-])cc1OC was tested, and the activity was inactive: -0.379%.
In the case of CN(C)C1(CNC(=O)c2ccc(Br)cc2)CCCCC1, the activity is reported as inactive: -9.69%.
CN(C)c1cccc(C(=O)NCC2(N(C)C)CCCCC2)c1 was tested, and the activity was inactive: -1.78%.
With O=C(OCCN1CCCC1)C(O)(c1ccccc1)c1ccccc1 the activity was inactive: 6.18%.
CC(C)Oc1ccc(C(=O)NCC2(N(C)C)CCCCC2)cc1 was tested, and the activity was inactive: 5.28%.
With COc1ccc(Br)c(C(=O)NCC2(N3CCCCC3)CCCCC2)c1 the activity was inactive: -7.1%.
For C=C(C)C#CC(O)(C(=O)OC1CCN(C)CC1)c1ccccc1 (stereo unspecified), the activity was inactive: 3.48%.
With O=C(OC1CN2CCC1CC2)C(CO)(c1ccccc1)c1ccccc1 (stereo unspecified) the activity was inactive: 3.88%.
In the case of Cc1ccc(C(=O)NCC2(N3CCCCC3)CCCCC2)cc1, the activity is reported as inactive: 10.1%.
For CC(C)N1C(=O)CC2(CCN(CCOC(=O)C(O)(c3ccccc3)c3ccccc3)CC2)C1=O, the activity was inactive: 12.2%.
For COc1cc(SC)ccc1C(=O)NCC1(N(C)C)CCCCC1, the activity was inactive: 4.74%.
In the case of CCN(CC)CC(C)C(C)OC(=O)C(O)(c1ccccc1)c1ccccc1 (stereo unspecified), the activity is reported as inactive: -0.552%.
For CN1[C@@H]2CC[C@H]1CC(OC(=O)C(O)(c1ccccc1)c1ccccc1)C2 (stereo partly specified), the activity was inactive: -0.87%.
For O=C(NCC1(N2CCCCC2)CCCCC1)c1cc([N+](=O)[O-])ccc1Cl, the activity was inactive: -2.21%.
In the case of O=C(NCC1(N2CCCCC2)CCCCC1)c1cccc(Br)c1, the activity is reported as inactive: 3.91%.
In the case of CCN1CCCC(OC(=O)C2(O)c3ccccc3C=Cc3ccccc32)C1 (stereo unspecified), the activity is reported as inactive: -10.7%.
In the case of Cc1cc(C(=O)NCC2(N3CCCCC3)CCCCC2)ccc1[N+](=O)[O-], the activity is reported as inactive: -3%.
For COc1ccc(C(=O)NCC2(N(C)C)CCCCC2)cc1, the activity was inactive: 2.29%.
O=C(NCC1(N2CCCCC2)CCCCC1)c1cc(F)c(F)cc1Cl was tested, and the activity was inactive: -3.94%.
For C=CCN1CCN(CCOC(=O)C(O)(c2ccccc2)c2ccccc2)CC1, the activity was inactive: -13.4%.
For CN(C)c1ccc(C(=O)NCC2(N(C)C)CCCCC2)cc1, the activity was inactive: 0.421%.
CN(C)C1CCCC1OC(=O)C(O)(c1ccccc1)c1ccccc1 (stereo unspecified) was tested, and the activity was inactive: -5.75%.
For Cc1ccccc1C(=O)NCC1(N2CCCCC2)CCCCC1, the activity was inactive: -10.4%.
